Laboratory results from ChEMBL document CHEMBL1142853, “SAR of psilocybin analogs: discovery of a selective 5-HT 2C agonist” (Bioorg Med Chem Lett, 2005).

By UniProt entry, the sequences of proteins in these tests, tags left out.
UniProt P41595, whole entry: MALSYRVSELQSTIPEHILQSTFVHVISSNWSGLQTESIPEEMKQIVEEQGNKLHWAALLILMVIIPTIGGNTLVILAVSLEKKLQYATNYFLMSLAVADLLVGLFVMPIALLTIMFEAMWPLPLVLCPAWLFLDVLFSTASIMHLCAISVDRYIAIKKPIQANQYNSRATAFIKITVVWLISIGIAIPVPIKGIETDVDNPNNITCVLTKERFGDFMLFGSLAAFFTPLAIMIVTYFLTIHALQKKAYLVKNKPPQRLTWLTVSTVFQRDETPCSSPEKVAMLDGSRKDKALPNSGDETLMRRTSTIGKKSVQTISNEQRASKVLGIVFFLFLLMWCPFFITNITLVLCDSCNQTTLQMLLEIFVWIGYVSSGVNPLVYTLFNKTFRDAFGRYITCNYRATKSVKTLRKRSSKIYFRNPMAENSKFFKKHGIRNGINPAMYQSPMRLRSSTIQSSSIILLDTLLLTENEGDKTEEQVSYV

Target: 5-hydroxytryptamine receptor 2B (Homo sapiens, UniProt P41595)
Assay: Effective concentration required for accumulation of [3H]inositol phosphate in cells transiently expressing human 5-hydroxytryptamine 2B receptor determined by phosphoinositide hydrolysis assay
Type: functional

Compound	EC50
CN(C)CCc1c[nH]c2cccc(OP(=O)(O)O)c12 [PSILOCYBIN]	74 nM
CN(C)CCc1c[nH]c2cccc(O)c12 [PSILOCIN]	58 nM
